Data reported in patent US20110076236A1, “COMPOSITIONS AND METHODS OF TREATMENT USING MODULATORS OF MOTONEURON DISEASES” (Kinemed, Inc., priority 2008, published 2011).

System: MT-mediated slow axonal transport of 2H-labeled tubulin
Assay: MT-mediated slow axonal transport of 2H-labeled tubulin in L5 root and sciatic nerve
Type: in vivo, mouse
Conditions: 13 weeks old SOD1G93A mice; 3 weeks treatment

Nc1nc2ccc(OC(F)(F)F)cc2s1 [Riluzole]
slow axonal transport of 2H-tubulin: no significant effect
